We go through 2 compounds from ChEMBL document CHEMBL2424574, “Structure-activity relationships and pharmacophore model of a noncompetitive pyrazoline containing class of GluN2C/GluN2D selective antagonists” (J Med Chem, 2013).

The structures appear in SMILES notation.

Test [1] is filed under the species Rattus norvegicus. The test is described as follows: Selectivity ratio of IC50 for recombinant rat GluN2B receptor to IC50 for recombinant rat GluN2D receptor. Put shortly:
(§1)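 Rat GluN1 co-expressed with GluN2A, GluN2B or GluN2D in Xenopus oocytes. Two-electrode voltage clamp at −40 mV in 90 NaCl, 1 KCl, 0.5 BaCl2, 0.005 EDTA, 10 HEPES (mM), pH 7.4, 23 °C; final DMSO 0.1–0.05%. IC50s came from Hill fits to averaged composite concentration-response curves (5–24 oocytes, 2–4 frogs). Ratio is GluN2A or GluN2B IC50 over GluN2D IC50.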

The species entered for test [2] is Rattus norvegicus. As to the kind of experiment: Selectivity ratio of IC50 for recombinant rat GluN2A receptor to IC50 for recombinant rat GluN2D receptor. In outline:
as §1

For the compound `O=C(O)CCC(=O)N1N=C(c2c(-c3ccccc3)c3cc(Cl)ccc3[nH]c2=O)CC1c1ccc(Br)cc1` (stereo not drawn), the Ratio IC50 in the test filed under Rattus norvegicus [1] is 7.

Turning to `O=C(O)CCC(=O)N1N=C(c2c(-c3ccc(Br)cc3)c3ccccc3[nH]c2=O)CC1c1ccc(Cl)cc1` (stereo not drawn), the Ratio IC50 came out at 79 in the test filed under Rattus norvegicus [1] and 34 in the test listed under Rattus norvegicus [2].
